Measured melting point values of organic chemicals

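These are experimental values that the OPERA curators gathered from public databases to train and test their QSAR models. A listed value is a point estimate from one report or more. Method and conditions are not stated for these values. A value may pool stereoisomers or salt forms, and the file does not say which form was measured. Some entries may be limits or estimates that an upstream database listed as plain numbers.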

The melting point is given in degrees Celsius.
"–" marks a cell with nothing listed here.

| SMILES | name | MP (°C) |
|---|---|---|
| Ic1nccn1C(c1ccccc1)(c1ccccc1)c1ccccc1 | 2-Iodo-1-trityl-1H-imidazole | 170.5 |
| COc1ccc(-c2nn(-c3ccccc3)cc2C(=O)O)cc1 | 3-(4-Methoxyphenyl)-1-phenyl-1H-pyrazole-4-carboxylic acid | 245 |
| CNc1ncc(C(F)(F)F)cc1Cl | 3-chloro-N-methyl-5-(trifluoromethyl)pyridin-2-amine | 45 |
| O=C(CBr)c1ccc(S(=O)(=O)N2CCCCC2)cc1 | 2-Bromo-1-[4-(piperidine-1-sulfonyl)phenyl]ethan-1-one | 109 |
| Nc1ccc(N2CCNC(=O)C2)cc1 | 4-(4-Aminophenyl)piperazin-2-one | 168 |
| COc1cc(CCC(=O)O)ccc1O | Dihydroferulic acid | 89.5 |
| O=S(=O)(c1ccc(Cl)nc1)N1CCOCC1 | 4-(6-chloro-pyridine-3-sulfonyl)-morpholine | 144 |
| Nc1ccc(S(=O)(=O)Nc2ccc(Cl)cc2)cc1 | 4-amino-N-(4-chlorophenyl)benzenesulfonamide | 181 |
| Cc1ccc(-c2ccc(C=O)o2)cc1 | 5-(4-methylphenyl)-2-furaldehyde | 54 |
| O=Cc1cccc(C(F)(F)F)c1O | 2-hydroxy-3-(trifluoromethyl)benzaldehyde | 56.5 |
| CC(CCO)CCO | 3-Methyl-1,5-pentanediol | -10 |
| COc1cc2c(cc1OC)CC(=O)NC=C2 | 7,8-dimethoxy-1,3-dihydro-2H-3-benzazepin-2-one | 246 |
| O=C1CC2(CCCCC2)C(=O)N1 | 2-azaspiro[4.5]decane-1,3-dione | 136 |
| N#CCCC(=O)c1cccnc1 | 4-Oxo-4-(pyridin-3-yl)butanenitrile | 72 |
| CC(=O)Nc1ccc(NC(=O)c2cc3ccccc3cc2O)cc1 | – | 270 |
| O=C(O)CCCNC(=O)c1ccc(Cl)cc1 | 4-(4-Chloro-benzoylamino)-butyric acid | 109 |
| NS(=O)(=O)c1ccc2c(c1)CCN2 | indoline-5-sulfonamide | 164 |
| NC(=O)NC(=O)C(Cl)c1ccccc1 (stereo not drawn) | Chlorphenacemide | 171 |
| Nc1ccc(Sc2nc3ccccc3[nH]2)cc1 | 4-(1H-benzimidazol-2-ylthio)aniline | 225 |
| NS(=O)(=O)c1ccc(S(=O)(=O)Cl)cc1 | 4-sulfamoylbenzenesulfonyl Chloride | 145 |
| CCN(CC)c1ccc2cc3c(oc2c1)c(C#N)c(=N)n1c2ccccc2nc31 | – | 263.4 |
| O=C(O)CCNS(=O)(=O)c1ccccc1 | 3-[(phenylsulfonyl)amino]propanoic acid | 112 |
| O=C(O)C#Cc1ccc(Cl)cc1 | 2-(4-Chlorophenyl)-2-propynoic acid | 192.5 |
| CC(=O)Nc1ncc2ncn(COCCOC(C)=O)c2n1 | 2-[(2-Acetamido-9H-purin-9-yl)methoxy]ethyl acetate | 134 |
| CCC(C)(C)c1ccccc1 | tert-Pentylbenzene | -74 |
| Cn1nc2ccc(NC(=O)c3ccc(Cl)cc3)cc2n1 | 4-Chloro-N-(2-methyl-2H-benzotriazol-5-yl)benzamide | 229 |
| Cc1cccc(OCCC(=O)O)c1 | 3-(3-methylphenoxy)propanoic acid | 100 |
| Nc1nc(=O)c2c([nH]1)NC[C@@H](CNc1ccc(C(=O)N[C@@H](CCC(=O)O)C(=O)O)cc1)N2 | Tetrahydrofolic acid | 215.5 |
| C=CCc1cc([N+](=O)[O-])ccc1O | 2-allyl-4-nitrophenol | 69 |
| Nc1cc(Cl)nc(C(=O)O)c1Cl | 4-Amino-3,6-dichloro-2-pyridinecarboxylic acid | 163.8 |
| O=C(O)Cc1ccc2c(c1)CCCC2 | (5,6,7,8-Tetrahydronaphthalen-2-yl)acetic acid | 79 |
| Cc1cc(C(=O)CCC(=O)O)c(C)s1 | 4-(2,5-dimethylthien-3-yl)-4-oxobutanoic acid | 106 |
| O=C(O)C=Cc1ccccc1[N+](=O)[O-] | 3-(2-Nitrophenyl)prop-2-enoic acid | 244 |
| C/C=C/C(=O)C1=C(C)C=CCC1(C)C | – | 1.8 |
| CCCCCCCCCCC(=O)CCCCC | Hexadecan-6-one | 36.5 |
| Cc1cc(F)c2c(c1)C(=O)C(=O)N2 | 7-Fluoro-5-methyl-1H-indole-2,3-dione | 226 |
| Cc1c(CCl)cc(C(=O)O)cc1CCl | 3,5-bis(chloromethyl)-4-methylbenzoic acid | 158 |
| NC(=O)COc1cccc(C(=O)O)c1 | 3-(2-amino-2-oxoethoxy)benzoic acid | 224 |

The 6 highest values of MP among the entries above:

| SMILES | name | MP (°C) |
|---|---|---|
| CC(=O)Nc1ccc(NC(=O)c2cc3ccccc3cc2O)cc1 | – | 270 |
| CCN(CC)c1ccc2cc3c(oc2c1)c(C#N)c(=N)n1c2ccccc2nc31 | – | 263.4 |
| COc1cc2c(cc1OC)CC(=O)NC=C2 | 7,8-dimethoxy-1,3-dihydro-2H-3-benzazepin-2-one | 246 |
| COc1ccc(-c2nn(-c3ccccc3)cc2C(=O)O)cc1 | 3-(4-Methoxyphenyl)-1-phenyl-1H-pyrazole-4-carboxylic acid | 245 |
| O=C(O)C=Cc1ccccc1[N+](=O)[O-] | 3-(2-Nitrophenyl)prop-2-enoic acid | 244 |
| Cn1nc2ccc(NC(=O)c3ccc(Cl)cc3)cc2n1 | 4-Chloro-N-(2-methyl-2H-benzotriazol-5-yl)benzamide | 229 |

Values as listed in the OPERA 2.9 repository of K. Mansouri.